# Experimental data: publication PMC11241769, “Comprehensive Characterization of Phytochemical Composition, Membrane Permeability, and Antiproliferative Activity of Juglans nigra Polyphenols” (International Journal of Molecular Sciences, 2024)
# Tests used:
# [1] = PAMPA-BBB (parallel artificial membrane permeability assay, porcine polar brain lipid extract); format: in vitro ADME; details: donor pH 7.4, acceptor pH 7.4, 37 °C, 4 h; n.d. = not detected in the acceptor phase
# Method: (§1) For the PAMPA-BBB test, 5 μL of porcine polar brain lipid extract (PBLE) solution (16.0 mg PBLE + 8.0 mg cholesterol dissolved in 600.0 μL n-dodecane) was applied for each well of the 96-well polycarbonate-based filter donor plates (top plate) (Multiscreen™-IP, MAIPN4510, pore size 0.45 μm; Merck). For the PAMPA-GI assay, the wells of the top plate were coated with 5 μL of the mixture of 16.0 mg phosphatidylcholine + 8.0 mg cholesterol dissolved in 600.0 μL n-dodecane. A measure of 150.0 μL of aliquots of the filtrated donor solutions were placed on the membrane. The 96-well PTFE acceptor plates (bottom plates) (Multiscreen Acceptor Plate, MSSACCEPTOR; Merck), were filled with 300.0 μL buffer solution (0.01 M PBS buffer, pH 7.4). The donor plate was placed upon the acceptor plate, and both plates were incubated together at 37 °C for 4 h in a Heidolph Titramax 1000 Vibrating platform shaker (Heidolph, Schwabach, Germany).
# (§2) After incubation, sandwich plates were separated and the concentrations of each compound in the starting donor solution and in the acceptor and donor wells were determined in triplicate by UHPLC-DAD method described above. […]
# (§3) All experiments were performed in three triplicates on three consecutive days (n = 9), caffeine standard was used as positive, while rutin as negative control. ClogP values were calculated by ChemAxon Marvin 22.3.
# [2] = PAMPA-GI (parallel artificial membrane permeability assay, phosphatidylcholine membrane); format: in vitro ADME; details: donor pH 6.8, acceptor pH 7.4, 37 °C, 4 h; n.d. = not detected in the acceptor phase
# Method: as §1, §2, §3
# [3] = chemical stability in the aqueous solutions/buffer of the PAMPA experiments (UHPLC-DAD); details: 4 h incubation at 37 °C
# Method: Quantities of the isolated compounds in the PAMPA experiments (14, 58, 74, 86, 92, 106, 141, and 143) were determined by UHPLC-DAD. The Juglans extracts were analyzed by an ACQUITY UPLC H-Class PLUS System equipped with a quaternary solvent delivery pump (QSM), an auto-sampler manager (FTN), a column compartment (CM), and a photodiode array (PDA) detector (Waters Corporation). An Acquity BEH C18 column (100 × 2.1 mm i.d., 1.7 µm; Waters Corporation) maintained at 30 °C was used as stationary phase. Eluent A was 0.3% acetic acid in water and eluent B was acetonitrile, the following gradient elution was applied (flow rate: 0.3 mL/min): 5.0–100.0% B (0.0–11.0 min), 100.0–5.0% B (11.0–11.5 min), 5% B (11.5–15.0 min). The injection volume was 5 µL and chromatograms were recorded at 200–400 nm. The chromatograms acquired at the UV absorption maxima of each compound were used for data evaluation.
# Stock solutions (10 mM in methanol) were diluted with the defined buffer (pH 7.4 for the PAMPA-BBB and pH 6.8 for the PAMPA-GI assays) to obtain the donor solutions (composition: 594.0 μL buffer + 6.0 μL stock solution). […]
substance,measurement,setting,value
myricetin-3-O-rhamnoside (myricitrin) [Compound 86],logPe PAMPA-BBB (n = 9),[1],not detected in the acceptor phase
same,logPe PAMPA-GI (n = 9),[2],not detected in the acceptor phase
same,degradation in the pH 7.4 buffer,[3],significant degree of degradation
